The list shows a part of the results, in another mix than the full data. Inconclusive results are not listed. Calls of active or inactive are those of the source. The call rests on the fitted dose curve; in most records, active means well fitted inhibition curve with a large enough effect; inconclusive means small, poorly fitted or top-dose-only effect, or effect the other way; inactive means flat fitted curve, though single readings scatter.
On the % scale 0 is the no-effect control and ±100 the full control effect; potency means the concentration at half of the fitted maximal effect.

Amino acid sequences for entries named in this document (tags omitted). A change or cut given only in a name is not applied to a line headed by its entry.
UniProt P07954: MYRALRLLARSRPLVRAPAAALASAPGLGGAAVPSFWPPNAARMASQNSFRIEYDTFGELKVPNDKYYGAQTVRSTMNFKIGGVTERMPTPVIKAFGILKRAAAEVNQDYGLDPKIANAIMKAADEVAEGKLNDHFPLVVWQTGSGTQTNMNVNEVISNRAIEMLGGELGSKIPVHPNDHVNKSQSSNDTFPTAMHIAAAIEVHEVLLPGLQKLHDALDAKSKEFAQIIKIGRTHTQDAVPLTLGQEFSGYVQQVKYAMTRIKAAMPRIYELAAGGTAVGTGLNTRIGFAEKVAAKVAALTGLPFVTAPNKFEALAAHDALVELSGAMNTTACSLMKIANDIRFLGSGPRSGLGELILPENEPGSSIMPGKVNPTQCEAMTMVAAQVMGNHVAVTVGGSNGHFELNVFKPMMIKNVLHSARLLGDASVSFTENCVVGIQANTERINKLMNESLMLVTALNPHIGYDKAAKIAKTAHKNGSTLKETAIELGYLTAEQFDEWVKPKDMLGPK

The assay has as its target Fumarate hydratase, mitochondrial (Homo sapiens) (UniProt P07954). Briefly: Identification of activators of human fumarate hydratase by quantitative high-throughput screening. Further: the screen sought activators but most active calls are inhibition curves; nearly all actives have a fitted effect of over 45% in size. The note with it: FH coupled MDH/diaphorase resazurin fluorescence, 15 min; activity change, negative = inhibition: at the top concentration. An excerpt: Fumarate hydratase (FH) is a metabolic enzyme that is part of the Krebs-cycle, and reversibly catalyzes the hydration of fumarate to malate. Mutations of the FH gene have been associated with fumarate hydratase deficiency (FHD), hereditary leiomyomatosis, renal cell cancer (HLRCC), and other diseases. Currently there are no high-quality small molecule probes for studying human fumarate hydratase. To address this, we developed a quantitative high throughput screening (qHTS) FH assay and screened a total of 57,037 compounds in dose-response. While no inhibitors of FH were confirmed, a series of phenyl-pyrrolo-pyrimidine-diones (12 compounds) were identified as activators of human fumarate hydratase. […] The binding of two compounds from the series to human fumarate hydratase was confirmed by microscale thermophoresis. The low hit rate in this screening campaign confirmed that FH is a "tough target" to modulate, and the small molecule activators of human fumarate hydratase reported here may serve as a starting point for further optimization and development into cellular probes of human FH and potential drug candidates.
For primary high-throughput screen, 3 ul of FH solution (containing 13.33nM human fumarate hydratase, 13.33IU/ml malic dehydrogenase, 0.2mM NAD, 0.067mg/ml diaphorase and 0.067mM resazurin in the assay buffer (50 mM Tris pH 8.0, 5 mM MgCl2, 0.01% Brij 3) was dispensed into each well in a black solid bottom 1536-well assay plate (Greiner Bio-One) using a BioRAPTR FRD dispenser (Beckman Coulter, Brea, CA). A 1536-well pintool dispenser outfitted with 20 nl pins (Wako Automation, San Diego, CA) was used to transfer 20 nL of DMSO-solubilized compound (Cherrypick plates) to each 1536-well assay plate. Each compound was screened at five concentrations: 15 nM, 151 nM, 1.5 uM, 15.4 uM, 76.9 uM. Following compound transfer, plates were incubated in room temperature for 10 minutes. 1 uL of substrate solution containing fumaric acid (160 uM) was dispensed via BioRAPTR FRD to initiate the reaction. Plates were immediately transferred to a ViewLux microplate imager (PerkinElmer, Waltham, MA), and any resulting resorufin fluorescence was measured (exitation/emission, 525/598 nm) at 0 and 15 minutes. The exposure time is 1 second. Fluorescence from each well was normalized using enzyme-free and DMSO-treated control wells on each plate, and changes in fluorescence (delta RFU) were calculated using the difference in fluorescent signal for each well at 15 minutes versus 0 minutes.
For the molecule `CN(C(=O)Cc1ccc(Cl)c(Cl)c1)[C@@H]1CC[C@]2(CCCO2)C[C@H]1N1CCCC1`, the “activity change, negative = inhibition” value is inactive: -7.28%.

For `CCn1c(=O)n([C@@H]2CCN(CC3CCCCCCC3)C[C@@H]2CO)c2ccccc21`, the “activity change, negative = inhibition” value is inactive: -1.33%.

Consider `CCn1c(=O)n([C@@H]2CCN(CC3CCCCCCC3)C[C@H]2CO)c2ccccc21`, for which the “activity change, negative = inhibition” value is inactive: -10.4% [at 79.9 µM]. `NC(=O)Nc1ccc([As](=O)(O)O)cc1`: the “activity change, negative = inhibition” value is inactive: -2.31%. On the same count and under the same terms, the figure for `CN(C(=O)Cc1ccccc1)[C@@H]1CC[C@]2(CCCO2)C[C@H]1N1CCCC1` is inactive: -9.5%; for `CN(C(=O)Cc1ccc(Cl)c(Cl)c1)[C@H]1CC[C@@]2(CCCO2)C[C@@H]1N1CCCC1` it is inactive: -6.25%; for `CN(C)C1(c2ccccc2)CCC2(CC1)OCCc1c2[nH]c2ccc(F)cc12` (centres undefined) it is inactive: 1.75% [at 79.9 µM].

`CN(C(=O)Cc1ccccc1)[C@H]1CC[C@@]2(CCCO2)C[C@@H]1N1CCCC1`: the “activity change, negative = inhibition” value was inactive: -2.32%. `Cc1cc([N+](=O)[O-])cc([N+](=O)[O-])c1O`: the “activity change, negative = inhibition” value is inactive: 1.52% [at 79.9 µM].

As for `CN(C(=O)Cc1ccc(Cl)c(Cl)c1)[C@@H]1CCCC[C@@H]1N1CCCC1`, the Potency is active: 25.1 µM. For `CN(C(=O)Cc1ccc(Cl)c(Cl)c1)[C@H]1CCCC[C@H]1N1CCCC1`, the “activity change, negative = inhibition” value was inactive: -5.68% [at 79.9 µM]. On the same count and under the same terms, the figure for `CCNC(C)Cc1ccc2c(c1)OCO2` (centres undefined) is inactive: 0.277% [at 79.9 µM]. As for `CN(C(=O)Cc1ccc(Cl)c(Cl)c1)[C@H]1CCCC[C@@H]1N1CCCC1`, the Potency entry is “inactive”.

For the molecule `O=C(O[C@H]1CN2CCC1CC2)C1NCc2ccccc2[C@@H]1c1ccccc1` (some centres undefined), the “activity change, negative = inhibition” value was inactive: 1.5% [at 79.9 µM].
